Experiments:
[1] = CEES oxidation in gel (Examples 1, 2); settings: 5 minutes; 100:1 molar excess of oxidant to surrogate
[2] = DEMP oxidation in gel at 100:1 (Example 3); settings: after 30 min; 100:1 molar excess of oxidant to surrogate
[3] = Dem-S oxidation in gel at 100:1 (Example 4); settings: 5 minutes; 100:1 molar excess of oxidant to surrogate
[4] = CEES oxidation and by-products, liquid formulation (Example 12); settings: liquid state, oxidant to CEES 10:1

Substance: 2KHSO5.KHSO4.K2SO4
- oxidation of CEES [1]: to completion
- DEMP eliminated [2]: 11%
- oxidation of Dem-S [3]: to completion
- CEES destroyed ([4]; 3 minutes): 100%
- by-products detected in CEES oxidation ([4]; 3 minutes): substantial amount of chloroethyl ethyl sulfone
- by-products of CEES oxidation ([4]; 90 minutes): still present
